The values that follow are results of earlier work, collected in PMC11600623 (Clinical and Translational Science, 2024).

The data set relates to FLT3-ITD-positive patients with relapsed/refractory (R/R) AML. As to conditions: single-agent quizartinib; cited from earlier work.

SMILES strings stand for the structures.

For the compound `CC(C)(C)c1cc(NC(=O)Nc2ccc(-c3cn4c(n3)sc3cc(OCCN5CCOCC5)ccc34)cc2)no1` [quizartinib], the “OS as compared to salvage chemotherapy” value is “improved OS”.
